Patent US20250177353A1 (priority 2021, published 2025)

Columns and labels:
[1] = tested on: rat model of metabolic syndrome (Zucker diabetic fatty rats); experiment: Rat model of metabolic syndrome (Zucker diabetic fatty rats), oral administration
[2] = Single-dose tolerability and repeat-dose toxicity, dogs; conditions: up to 61 days
[3] = Assessment of food effect (500 mg, fed versus fasted crossover, Cohort 4)
[4] = Nonclinical toxicology program (acute, repeat-dose, genotoxicity), overall findings; conditions: nonclinical toxicity studies
[5] = Phase 2a trial: abdominal MRI visceral adipose tissue (Table 12); conditions: FAS population, difference is placebo minus dose group

Cn1c(COc2ccc([N+](=O)[O-])cc2[N+](=O)[O-])cnc1[N+](=O)[O-]
dose level demonstrating efficacy [1]: ≥ 0.5 mg/kg/day | well tolerated dose [2]: up to 100 mg/kg/day | Compound 1 AUC0-24h geometric mean ratio (90% CI) of Fed versus Fasted ([3]; 500 mg single oral dose): 5.11 (1.75-14.9) | Compound 1 AUClast geometric mean ratio (90% CI) of Fed versus Fasted ([3]; 500 mg single oral dose): 4.19 (2.75-6.39) | Compound 1 Cmax geometric mean ratio (90% CI) of Fed (test) versus Fasted (reference) ([3]; 500 mg single oral dose): 1.82 (1.30-2.56) | AUC increase under fed conditions relative to fasted conditions ([3]; standard high fat (50%) meal, 500 mg Compound 1): > 4.0 fold | deaths or effects on body weight, food consumption, body temperature, ophthalmology, electrocardiograms, hematology, clinical chemistry, urinalysis [4]: no Compound 1-related deaths or effects | Mean Diff. (Uncorrected Fisher's LSD), visceral adipose tissue, percent change from baseline ([5]; Placebo vs. 150 mg once daily): −0.1480% | Mean Diff. (Uncorrected Fisher's LSD), visceral adipose tissue, percent change from baseline ([5]; Placebo vs. 300 mg once daily): 4.442% | Mean Diff. (Uncorrected Fisher's LSD), visceral adipose tissue, percent change from baseline ([5]; Placebo vs. 450 mg once daily): 5.513%
